Patent US4713369A, “Oligopeptidylargininol derivatives and their homologs, a process for their preparation, their use and agents containing them” (Behringwerke Aktiengellschaft, priority 1985, dated 1987)

Target: human α-thrombin (Homo sapiens, UniProt P00734)
Details: read-out: final concentration at which 50% inhibition was reached; human α-thrombin 0.28 UI, tris buffer pH 8.2, 37° C., 5 min incubation, extinction at 405 nm

IC50: 150 ± 10 nM
Structure (SMILES): N=C(N)NCCC[C@@H](CO)NC(=O)[C@@H]1CCCN1C(=O)[C@H](N)Cc1ccccc1.O=C(O)C(F)(F)F.O=C(O)C(F)(F)F [D-Phe-Pro-argininol ditrifluoroacetate, D-Phe-Pro-Arg-CH2 OH×2CF3 COOH]
